Experimental data taken from paper PMC5933747 (PLoS ONE, 2018).

How the values were obtained:
Assay type in all cases: cell-based
human NaV1.7 [1] = biological target: T1, human NaV1.7 (Homo sapiens, UniProt Q15858); assay: Manual whole cell patch clamp, human NaV1.7; details: read-out: NaV1.7 IC50
human NaV1.7 [2] = biological target: T1, human NaV1.7; assay: PatchXpress (PX) automated electrophysiology, human NaV1.7 in HEK293 cells; details: PX platform, voltage protocol with 20% of channels inactivated, at least ten cells, two to three data points per concentration
human NaV1.7 [3] = biological target: T1, human NaV1.7; assay: IonWorks Quattro (IWQ) electrophysiology, human NaV1.7; details: IWQ platform; single-residue Ala scan of JzTx-V; read-out: Ala mutant IWQ IC50 NaV1.7

## JzTx-V(1–29) [reference compound]
Human NaV1.7 [1]
  IC50: 0.15 ± 0.05 nM
Human NaV1.7 [2]
  IC50: 0.63 ± 0.17 nM
Human NaV1.7 [3]
  IC50: 16 nM
